This data set in a line: Volume of distribution at steady state in dog after iv administration. It is filed as ADME, organism-based, Canis lupus familiaris. As to conditions: in vivo, read-out: Vdss.

For `CN(Cc1cnc2nc(N)nc(N)c2n1)c1ccc(C(=O)N[C@@H](CCC(=O)O)C(=O)O)cc1` [METHOTREXATE], the Vd was 0.54 L/kg.
